Laboratory results: patent US6965013B2, “Intermedin and its uses” (The Board of Trustees of the Leland Stanford Junior …, priority 2002, dated 2005)

By UniProt entry, the sequences of proteins in these tests, tags left out. Residues count along the entry.
UniProt Q63118, 24-464: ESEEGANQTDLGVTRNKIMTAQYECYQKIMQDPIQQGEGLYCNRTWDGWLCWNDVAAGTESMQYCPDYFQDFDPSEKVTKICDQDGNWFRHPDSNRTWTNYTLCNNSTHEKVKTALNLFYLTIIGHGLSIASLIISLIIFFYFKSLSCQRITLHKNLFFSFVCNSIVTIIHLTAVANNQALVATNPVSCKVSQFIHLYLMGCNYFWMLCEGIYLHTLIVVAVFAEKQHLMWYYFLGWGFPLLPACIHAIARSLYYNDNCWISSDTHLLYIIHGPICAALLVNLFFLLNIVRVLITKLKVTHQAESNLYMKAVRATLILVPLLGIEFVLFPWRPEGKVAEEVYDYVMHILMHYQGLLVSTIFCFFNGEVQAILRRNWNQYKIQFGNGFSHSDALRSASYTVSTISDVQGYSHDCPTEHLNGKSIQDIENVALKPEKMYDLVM
UniProt Q9JJ74, 27-148 partner: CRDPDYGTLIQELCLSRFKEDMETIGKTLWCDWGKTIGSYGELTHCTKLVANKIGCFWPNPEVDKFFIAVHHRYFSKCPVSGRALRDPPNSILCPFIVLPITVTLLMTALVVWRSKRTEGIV

Target: T1, L6 skeletal myoblast cells expressing endogenous CRLR (CGRP receptor) (Rattus norvegicus, UniProt Q63118+Q9JJ74)
T1 construct: expressing endogenous CRLR; host or cells: L6 rat skeletal myoblast cells
Test: Stimulation of cAMP production in L6 cells
Type: cell-based
Conditions: 30 min treatment, 2.5 mM IBMX, FIG. 2B
Protocol: Stimulation of cAMP production in SK-N-MC and L6 cells by intermedin and related peptides. Human neuroblastoma SK-N-MC and rat L6 skeletal myoblast cells expressing endogenous CRLR were obtained from American Type Culture Collection. To estimate adenylyl cyclase activation, SK-N-MC and L6 cells (2×10^5 viable cells/well) were plated in 24-well culture dishes in DMEM/F12 medium one day before treatment. Following 2 h incubation in serum-free DMEM/F12 medium, cells were treated with testing reagents for 30 min in medium containing 0.1% BSA and 2.5 mM 3-isobutyl-1-methylxanthine (IBMX, Sigma-Aldrich Corp.) to prevent hydrolysis of cAMP by phosphodiesterases. Following treatment, cells were lysed and cAMP content determined by a specific radioimmunoassay.

## calcitonin gene-related peptide [CGRP, reference compound]
  cAMP production: stimulated cAMP production
